biological target: human orexin-1 receptor (hOX1R) (Homo sapiens (Human), UniProt O43613); experiment: Measurement of orexin antagonistic activity (intracellular Ca2+ fluorescence, FDSS), hOX1R; format: cell-based; settings: CHO cells forcibly expressing hOX1R; ligand peptide (modified human orexin-A) 300 pM; maximum fluorescence intensity; read-out: IC50 Value OX1
Experimental: (§1) Chinese hamster ovary (CHO) cells forcibly expressing the hOX1R and hOX2R were seeded into a 96 well Black clear bottom plate (Nunc) at 20,000 cells per well, which were cultured in Ham's F-12 medium containing 0.1 mM MEM non-essential amino acids, 0.5 mg/ml G418, 10% fetal bovine serum (all by Invitrogen) for 16 hours under the conditions of 37° C., 5% CO2. After removing the medium, 100 μL of 0.5 μM Fluo-4AM ester (Dojin) in an assay buffer (25 mM HEPES (Dojin), Hank's balanced salt solution (Invitrogen), 0.1% bovine serum albumin, 2.5 mM probenecid, 200 μg/ml Amaranth (all by Sigma-Aldrich), pH 7.4) was added and the cells were incubated for 60 minutes at 37° C., 5% CO2. After removing the assay buffer containing fluo-3AM ester, the test compound was dissolved in dimethyl sulfoxide to be 10 mM and diluted with the assay buffer, 150 μL of which was added and incubated for 30 minutes.
(§2) The reaction was measured for the fluorescence intensity of each well every second for 3 minutes using Functional Drug Screening System (FDSS; Hamamatsu Photonics K.K.), and the antagonistic activity was determined using the maximum fluorescence intensity as the indicator of intracellular Ca2+ concentration.

By UniProt entry, the sequences of proteins in these tests, tags left out.
UniProt O43613, whole entry: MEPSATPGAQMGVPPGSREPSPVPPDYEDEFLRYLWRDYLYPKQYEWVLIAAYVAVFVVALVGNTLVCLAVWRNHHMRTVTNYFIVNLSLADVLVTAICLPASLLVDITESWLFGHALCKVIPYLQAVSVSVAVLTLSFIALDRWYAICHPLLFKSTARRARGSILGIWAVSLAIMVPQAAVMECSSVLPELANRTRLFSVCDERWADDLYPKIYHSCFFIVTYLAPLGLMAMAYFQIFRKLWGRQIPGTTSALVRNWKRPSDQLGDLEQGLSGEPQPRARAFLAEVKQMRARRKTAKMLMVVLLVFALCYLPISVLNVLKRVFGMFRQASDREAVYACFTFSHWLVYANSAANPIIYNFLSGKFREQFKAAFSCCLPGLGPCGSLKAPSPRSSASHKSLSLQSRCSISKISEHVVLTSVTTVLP
UniProt O43614, whole entry: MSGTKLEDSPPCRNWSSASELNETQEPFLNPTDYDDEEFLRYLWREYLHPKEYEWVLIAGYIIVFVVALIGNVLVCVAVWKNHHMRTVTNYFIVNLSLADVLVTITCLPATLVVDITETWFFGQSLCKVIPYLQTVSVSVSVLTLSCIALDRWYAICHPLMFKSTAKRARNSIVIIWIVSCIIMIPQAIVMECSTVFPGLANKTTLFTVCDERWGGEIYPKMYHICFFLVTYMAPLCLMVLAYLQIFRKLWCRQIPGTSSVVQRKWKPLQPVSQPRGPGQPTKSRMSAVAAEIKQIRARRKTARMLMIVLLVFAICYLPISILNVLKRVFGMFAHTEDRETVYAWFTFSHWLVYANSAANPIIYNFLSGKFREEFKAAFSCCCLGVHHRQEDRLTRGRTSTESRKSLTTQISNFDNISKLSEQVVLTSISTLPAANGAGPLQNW

Row | SMILES | IC50
1 | Cc1ccc(-c2ncccn2)c(C(=O)N2CCOC2Cn2ccc(-c3ccc(F)cn3)n2)c1 (racemic) [Example 14, (±)-2-[[3-(5-fluoropyridin-2-yl)-1H-pyrazol-1-yl]methyl)-1,3-oxazolidin-3-yl] [5-methyl-2-(pyrimidin-2-yl)phenyl]methanone] | 0.0097 µM
2 | O=C(c1ccccc1-c1ncccn1)N1CCOC1Cn1ccc(-c2ccc(F)cn2)n1 (racemic) [Example 15, (±)-(2-[[3-(5-fluoropyridin-2-yl)-1H-pyrazol-1-yl]methyl]-1,3-oxazolidin-3-yl) [2-(pyrimidin-2-yl)phenyl] methanone] | 0.0169 µM
3 | Cc1ccc(-c2ncccn2)c(C(=O)N2CCOC2Cn2cc(-c3ccc(F)cc3)cn2)c1 (racemic) [Example 24, (±)-(2-[[4-(4-fluorophenyl)-1H-pyrazol-1-yl]methyl]-1,3-oxazolidin-3-yl)[5-methyl-2-(pyrimidin-2-yl)phenyl]methanone] | 0.0346 µM
4 | O=C(c1cc(F)ccc1-c1ncccn1)N1CCOC1Cn1cc(-c2ccc(F)cc2)cn1 (racemic) [Example 25, (±)-(2-[[4-(4-fluorophenyl)-1H-pyrazol-1-yl]methyl]-1,3-oxazolidin-3-yl)[5-fluoro-2-(pyrimidin-2-yl)phenyl] methanone] | 0.0986 µM

biological target: human orexin-2 receptor (hOX2R) (Homo sapiens (Human), UniProt O43614); experiment: Measurement of orexin antagonistic activity (intracellular Ca2+ fluorescence, FDSS), hOX2R; format: cell-based; settings: CHO cells forcibly expressing hOX2R; ligand peptide (modified human orexin-A) 3 nM; maximum fluorescence intensity; read-out: IC50 Value OX2
Experimental: as §1, with “The antagonistic activities of the test compounds on human orexin-1 receptor (hOX1R) and orexin-2 receptor (hOX2R) were measured by modifying from the method described in literature (Toshikatsu Okumura et al., Biochemical and Biophysical Research Communications 280, 976-981, 2001). Chinese” for “Chinese”
as §2

Row | SMILES | IC50
5 | Cc1ccc(-c2ncccn2)c(C(=O)N2CCOC2Cn2ccc(-c3ccc(F)cn3)n2)c1 (racemic) [Example 14, (±)-2-[[3-(5-fluoropyridin-2-yl)-1H-pyrazol-1-yl]methyl)-1,3-oxazolidin-3-yl] [5-methyl-2-(pyrimidin-2-yl)phenyl]methanone] | 0.0095 µM
6 | O=C(c1ccccc1-c1ncccn1)N1CCOC1Cn1ccc(-c2ccc(F)cn2)n1 (racemic) [Example 15, (±)-(2-[[3-(5-fluoropyridin-2-yl)-1H-pyrazol-1-yl]methyl]-1,3-oxazolidin-3-yl) [2-(pyrimidin-2-yl)phenyl] methanone] | 0.225 µM
7 | O=C(c1cc(F)ccc1-c1ncccn1)N1CCOC1Cn1cc(-c2ccc(F)cc2)cn1 (racemic) [Example 25, (±)-(2-[[4-(4-fluorophenyl)-1H-pyrazol-1-yl]methyl]-1,3-oxazolidin-3-yl)[5-fluoro-2-(pyrimidin-2-yl)phenyl] methanone] | 0.107 µM
8 | Cc1ccc(-n2nccn2)c(C(=O)N2CCOC2Cn2ccc(-c3ccc(F)cn3)n2)c1 (single isomer, unassigned; (-)) [Example 1, (−)-(2-{[3-(5-Fluoropyridin-2-yl)-1H-pyrazol-1-yl]methyl}-1,3-oxazolidin-3-yl)[5-methyl-2-(2H-1,2,3-triazol-2-yl)phenyl]methanone] | 0.0185 µM
9 | Cc1ccc(-n2nccn2)c(C(=O)N2CCCOC2Cn2cc(-c3ccc(F)cn3)cn2)c1 (single isomer, unassigned; (-)) [Example 4, (−)-(2-[[4-(5-fluoropyridin-2-yl)-1H-pyrazol-1-yl]-methyl]-1,3-oxazinan-3-yl)[5-methyl-2-(2H-1,2,3-triazol-2-yl)phenyl] methanone] | 0.0032 µM
10 | Cc1ccc(-n2nccn2)c(C(=O)N2CC(C)COC2Cn2cc(-c3ccc(F)cn3)cn2)c1 (single isomer, unassigned; (-)) [Example 40, (−)-[(2S*,5S*)-2-{[4-(5-Fluoropyridin-2-yl)-1H-pyrazol-1-yl]methyl}-5-methyl-1,3-oxazinan-3-yl][5-methyl-2-(2H-1,2,3-triazol-2-yl)phenyl]methanone] | 0.0014 µM
11 | Cc1ccc(-c2ncccn2)c(C(=O)N2CCCOC2Cn2cc(-c3ccc(F)cc3)cn2)c1 (single isomer, unassigned; (-)) [Example 43, (−)-[2-[[4-(4-fluorophenyl)-1H-pyrazol-1-yl]methyl]-1,3-oxazinan-3-yl][5-methyl-2-(pyrimidin-2-yl)phenyl]methanone] | 0.0032 µM
12 | O=C(c1cc(F)ccc1-c1ncccn1)N1CCCOC1Cc1cnn(-c2ccc(F)cn2)c1 (single isomer, unassigned; (-)) [Example 44, (−)-[2-[[1-(5-fluoropyridin-2-yl)-1H-pyrazol-4-yl]methyl]-1,3-oxazinan-3-yl] [5-fluoro-2-(pyrimidin-2-yl)phenyl]methanone] | 0.0518 µM
13 | Cc1ccc(-n2nccn2)c(C(=O)N2CCCOC2Cc2cnn(-c3ccc(F)cn3)c2)c1 (single isomer, unassigned; (-)) [Example 47, (−)-[2-{[1-(5-Fluoropyridin-2-yl)-1H-pyrazol-4-yl]methyl}-1,3-oxazinan-3-yl][5-methyl-2-(2H-1,2,3-triazol-2-yl)phenyl]methanone] | 0.0036 µM
14 | Cc1ccc(-n2nccn2)c(C(=O)N2CC(C)COC2Cn2cc(-c3ccc(F)cn3)cn2)c1 (single isomer, unassigned; (-)) [Example 49, (−)-[(2S*,5R*)-2-{[4-(5-Fluoropyridin-2-yl)-1H-pyrazol-1-yl]methyl}-5-methyl-1,3-oxazinan-3-yl][5-methyl-2-(2H-1,2,3-triazol-2-yl)phenyl]methanone] | 0.0077 µM
15 | Cc1ccc(-n2nccn2)c(C(=O)N2C[C@H](C)O[C@H]2Cn2cc(-c3ccc(F)cn3)cn2)c1 [Example 5, (−)-[(2S,5S)-2-{[4-(5-Fluoropyridin-2-yl)-1H-pyrazol-1-yl]methyl}-5-methyl-1,3-oxazolidin-3-yl][5-methyl-2-(2H-1,2,3-triazol-2-yl)phenyl]methanone] | 0.0115 µM
16 | Cc1ccc(-n2nccn2)c(C(=O)N2C[C@@H](C)O[C@H]2Cn2cc(-c3ccc(F)cn3)cn2)c1 [Example 6, (−)-[(2S,5R)-2-[[4-(5-fluoropyridin-2-yl)-1H-pyrazol-1-yl]methyl]-5-methyl-1,3-oxazolidin-3-yl] [5-methyl-2-(2H-1,2,3-triazol-2-yl)phenyl] methanone] | 0.0098 µM
17 | Cc1ccc(-n2nccn2)c(C(=O)N2[C@H](C)CO[C@H]2Cn2ccc(-c3ccc(F)cn3)n2)c1 [Example 7, [(2S,4R)-2-[[3-(5-fluoropyridin-2-yl)-1H-pyrazol-1-yl]-methyl]-4-methyl-1,3-oxazolidin-3-yl] [5-methyl-2-(2H-1,2,3-triazol-2-yl)phenyl] methanone] | 0.0549 µM
18 | Cc1ccc(-n2nccn2)c(C(=O)N2[C@H](Cn3ccc(-c4ccc(F)cn4)n3)OC[C@@H]2C)c1 [Example 9, (−)-[(2S,4S)-2-[[3-(5-fluoropyridin-2-yl)-1H-pyrazol-1-yl]-methyl]-4-methyl-1,3-oxazolidin-3-yl] [5-methyl-2-(2H-1,2,3-triazol-2-yl)phenyl] methanone] | 0.0415 µM

Reference: patent publication US9266870B2 (TAISHO PHARMACEUTICAL CO., LTD., priority 2012, dated 2016)
